Screens as filed in PubChem.
Rows were chosen to be rich in hits. Some 16% of all compounds tested hit in one or more screens of this group.
miR-21 FLuc = miR-21 reporter, rising signal. HeLa miR-21 FLuc reporter, luciferase, 48 h. Potency, µM (titrated, usually from 38.3 µM), without a hit: at the top dose reporter change, positive = more light. 340,000 tested, under 10 active. AID 2288; active = well fitted rising curve with a large enough effect; inconclusive = small, poorly fitted or top-dose-only effect; inactive = no such curve, though single readings can be large or run the other way;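 also: % of control where 0% means no effect; miR-21 action dims this reporter so a rising signal means less miR-21 action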
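Compounds were titrated across several concentrations (up to approximately 40 uM) and incubated 48 hours with HeLa miR-21-FLuc reporter cells (miR-21 target sequence downstream of FLuc, endogenous miR-21). Readout was firefly luciferase luminescence after lytic detection reagent.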
uPA surface inh = inhibitors of cell surface uPA generation. cell surface uPA generation assay, qHTS. Potency, µM (titrated, usually from 38.3 µM), for inactives: at the highest dose activity change, negative = inhibition, hits mostly inhibitors. actives 0.31% (n = 330,000). AID 540303; active = well fitted inhibition curve with a large enough effect; inconclusive = small, poorly fitted or top-dose-only effect; inactive = no such curve, though single readings can be large or run the other way; tested in mouse RAW 264.7 cells; note: potency is the fitted concentration of half-maximal effect; % is set by controls: 0 for no effect and ±100 for the full control effect; nearly all actives have a fitted effect of over 55% in size
TDP1 block = blocks human tyrosyl-DNA phosphodiesterase 1. recombinant TDP1, AlphaScreen DNA substrate cleavage. Potency, µM (doses to about 130 µM), for the others: at the highest dose activity change, negative = inhibition, actives largely listed as inhibitors. actives 0.28% (n = 350,000); note: potency is the fitted concentration of half-maximal effect; % is set by controls: 0 for no effect and ±100 for the full control effect; nearly all actives have a fitted effect of over 40% in size
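Signal: AlphaScreen proximity between streptavidin donor and anti-FITC acceptor beads on intact substrate. Reaction: Tdp1 1 nM, substrate 15 nM final, 5 min RT after 15 min compound preincubation.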
DT40 TDP1 no CPT = qHTS for Inhibitors of human tyrosyl-DNA phosphodiesterase 1 (TDP1): qHTS in cells in absence of CPT. DT40 Tdp1-/- hTDP1 cells, no CPT, ATP luminescence, 48 h. Potency, µM (doses to about 46.2 µM), without a hit: at the highest dose activity change, negative = growth inhibition, most hits filed as inhibitors. actives 15% (n = 420,000). AID 686978, 2013; note: potency is the fitted concentration of half-maximal effect; % is set by controls: 0 for no effect and ±100 for the full control effect; nearly all actives have a fitted effect of over 55% in size
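No-CPT arm: Tdp1-/-;hTDP1 DT40 cells (400/well) plus compounds, incubated ≥48 hr at 37 °C. Readout CellTiter-Glo luminescence.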
DT40 TDP1 CPT = DT40-hTDP1 cell growth loss with CPT; Potency, µM (series often up to 46.2 µM), for the others: at the highest dose activity change, negative = growth inhibition, actives largely listed as inhibitors; actives 12% (n = 420,000); AID 686979; chicken DT40 Tdp1-/-;hTDP1 cells + 20 nM CPT, ATP luminescence, 48 h; note: potency is the fitted concentration of half-maximal effect; % is set by controls: 0 for no effect and ±100 for the full control effect; nearly all actives have a fitted effect of over 55% in size
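Cell growth measured by CellTiter-Glo luminescence after a minimum 48 h, 37 C compound exposure with 20 nM CPT in Tdp1-knockout DT40 cells stably expressing hTDP1, seeded 400/well; qHTS titration format.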
Starred values were filed as active, the others as inactive; [ ] = remark or other dose. Unless noted, calls come from the whole dose curve; as a rule, active = well fitted curve in the direction sought with a large enough effect; inconclusive = small, poorly fitted or top-dose-only effect, or another doubt; inactive = no such curve, though single readings can be large; an effect the other way counts as inactive or inconclusive.

Cc1snc(S(=O)(=O)/C(C#N)=N/Nc2cccc(C(F)(F)F)c2)c1C#N was read as miR-21 FLuc -7.0%, uPA surface inh 5.5%, TDP1 block 7.5%, DT40 TDP1 no CPT inconclusive and DT40 TDP1 CPT 16.4µM*.
For COc1ccc(S(=O)(=O)N(C)CC(=O)NCCC2=CCCCC2)cc1C the results were miR-21 FLuc -2.2%, TDP1 block 0.0%, DT40 TDP1 no CPT inconclusive and DT40 TDP1 CPT inconclusive.
CCOC(=O)c1c(C)n(-c2ccc(OC)cc2)c2ccc(OC(=O)COc3ccccc3)cc12 was read as miR-21 FLuc -13.5%, TDP1 block 3.1%[12.3 µM], DT40 TDP1 no CPT 20.6µM* and DT40 TDP1 CPT inconclusive.
`CCOC(=O)c1c(C)n(-c2ccccc2)c2ccc(OC(=O)COc3ccccc3)cc12` gave miR-21 FLuc 0.9%, TDP1 block 8.6%[2.28 µM], DT40 TDP1 no CPT -14.4% and DT40 TDP1 CPT inconclusive.
For COc1ccc(-n2c(C)c(C(C)=O)c3cc(OC(=O)COc4ccccc4)ccc32)cc1 the results were miR-21 FLuc 24.2%, DT40 TDP1 no CPT 7.31µM* and DT40 TDP1 CPT 6.51µM*.
`CC(=O)c1c(C)n(-c2ccc(C)cc2)c2ccc(OC(=O)COc3ccccc3)cc12` gave miR-21 FLuc 1.6%, DT40 TDP1 no CPT 7.31µM* and DT40 TDP1 CPT 6.51µM*.
O=C(CNC(=O)c1ccccc1F)NC1CC1 was read as miR-21 FLuc -13.8%, uPA surface inh 1.1%, TDP1 block -5.4%[56.1 µM], DT40 TDP1 no CPT -6.0% and DT40 TDP1 CPT -17.3%.
Screening CN1CCN(c2oc(-c3ccccc3)nc2S(=O)(=O)c2ccc(Br)cc2)CC1 returned miR-21 FLuc 1.4%, uPA surface inh -1.5%, TDP1 block 12.1%, DT40 TDP1 no CPT inconclusive and DT40 TDP1 CPT 16.4µM*.
Cc1ccc(S(=O)(=O)c2nc(-c3ccccc3F)oc2N2CCCCC2)cc1 was read as miR-21 FLuc -14.6%, DT40 TDP1 no CPT 14.6µM* and DT40 TDP1 CPT inconclusive.
For O=S(=O)(c1ccccc1)c1nc(-c2ccccc2F)oc1N1CCOCC1 the results were miR-21 FLuc -7.9%, DT40 TDP1 no CPT inconclusive and DT40 TDP1 CPT inconclusive.
`Cc1ccc(S(=O)(=O)c2nc(-c3ccccc3)oc2N2CCCC2)cc1` gave uPA surface inh 5.2%, TDP1 block inconclusive, DT40 TDP1 no CPT 16.1% and DT40 TDP1 CPT -18.4%.
O=S(=O)(c1ccccc1)c1nc(-c2ccccc2)oc1N1CCCC1 was read as miR-21 FLuc -4.1%, uPA surface inh 7.1%, TDP1 block -10.3%, DT40 TDP1 no CPT -7.6% and DT40 TDP1 CPT -0.9%.
For Cc1ccc(S(=O)(=O)c2nc(-c3cccc(C)c3)oc2N2CCCCC2)cc1 the results were miR-21 FLuc 4.3%, TDP1 block -8.4%[12.3 µM], DT40 TDP1 no CPT 23.1µM* and DT40 TDP1 CPT inconclusive.
Screening O=S(=O)(c1ccccc1)c1nc(-c2ccccc2)oc1N1CCCCC1 returned miR-21 FLuc -3.0%, TDP1 block 5.0%, DT40 TDP1 no CPT 16.4µM* and DT40 TDP1 CPT inconclusive.
`CCOc1ccc(N2CC(O)Cn3c2nc2c3c(=O)n(CCCc3ccccc3)c(=O)n2C)cc1` (stereo unspecified) gave miR-21 FLuc 14.2%, uPA surface inh -0.6%, TDP1 block 2.4%, DT40 TDP1 no CPT inconclusive and DT40 TDP1 CPT inconclusive.
CCCC(=O)N1CCC1(C)C(=O)NS(=O)(=O)c1ccc(C#N)cc1 (stereo unspecified) was read as DT40 TDP1 no CPT 13.3% and DT40 TDP1 CPT -0.5%.
COc1ccc(-c2nc(S(=O)(=O)c3ccc(C)cc3)c(N3CCCCC3)o2)cc1 was read as miR-21 FLuc 0.3%, DT40 TDP1 no CPT inconclusive and DT40 TDP1 CPT -26.3%.
`COc1cccc(-c2nc(S(=O)(=O)c3ccc(C)cc3)c(N3CCCCCC3)o2)c1` gave miR-21 FLuc 3.3%, TDP1 block 1.1%, DT40 TDP1 no CPT 4.61µM* and DT40 TDP1 CPT 23.1µM*.
Screening Cc1ccc(S(=O)(=O)c2nc(-c3ccccc3)oc2N2CCN(c3ccccc3)CC2)cc1 returned miR-21 FLuc 1.2%, TDP1 block 0.0%, DT40 TDP1 no CPT 20.6µM* and DT40 TDP1 CPT 16.4µM*.
Screening Cc1ccc(S(=O)(=O)c2nc(-c3cccc(C)c3)oc2N2CCN(c3ccccc3)CC2)cc1 returned miR-21 FLuc 2.1%, TDP1 block 9.8%, DT40 TDP1 no CPT 1.46µM* and DT40 TDP1 CPT inconclusive.

The closing three entries of the part above lead into the next.
`COc1cccc(-c2nc(S(=O)(=O)c3ccc(C)cc3)c(N3CCCCCC3)o2)c1` gave miR-21 FLuc 3.3%, TDP1 block 1.1%, DT40 TDP1 no CPT 4.61µM* and DT40 TDP1 CPT 23.1µM*.
Screening Cc1ccc(S(=O)(=O)c2nc(-c3ccccc3)oc2N2CCN(c3ccccc3)CC2)cc1 returned miR-21 FLuc 1.2%, TDP1 block 0.0%, DT40 TDP1 no CPT 20.6µM* and DT40 TDP1 CPT 16.4µM*.
Screening Cc1ccc(S(=O)(=O)c2nc(-c3cccc(C)c3)oc2N2CCN(c3ccccc3)CC2)cc1 returned miR-21 FLuc 2.1%, TDP1 block 9.8%, DT40 TDP1 no CPT 1.46µM* and DT40 TDP1 CPT inconclusive.
`O=S(=O)(c1ccc(Cl)cc1)c1nc(-c2ccccc2)oc1N1CCN(c2ccccc2)CC1` gave miR-21 FLuc 3.5%, TDP1 block -1.2%, DT40 TDP1 no CPT inconclusive and DT40 TDP1 CPT inconclusive.
Screening Cc1ccc(-c2nc(S(=O)(=O)c3ccc(C)cc3)c(N3CCN(c4ccccc4)CC3)o2)cc1 returned miR-21 FLuc 0.0%, TDP1 block 4.9%, DT40 TDP1 no CPT inconclusive and DT40 TDP1 CPT -12.6%.
Screening COc1ccc(NC(=O)C2Cc3ccccc3N2C(=O)c2ccccc2)c(OC)c1 (stereo unspecified) returned miR-21 FLuc 3.1%, TDP1 block -3.8%, DT40 TDP1 no CPT -23.3% and DT40 TDP1 CPT -25.5%.
For Nc1ccc2nc(-c3cccc(-c4nc5ccc(N)cc5[nH]4)c3)[nH]c2c1 the results were miR-21 FLuc 5.5%, uPA surface inh -1.7%, DT40 TDP1 no CPT inconclusive and DT40 TDP1 CPT 5.0%.
Screening Nc1ccc2cc3[nH]c4cc(N)ccc4c3nc2c1 returned uPA surface inh -12.6%, DT40 TDP1 no CPT 2.31µM* and DT40 TDP1 CPT 2.91µM*.
For Cn1c2c(c(=O)n(C)c1=O)C(C(F)(F)F)(C(F)(F)F)N=C(CCC1CCCCC1)N2 the results were miR-21 FLuc inconclusive, uPA surface inh -16.4%, TDP1 block 5.3%, DT40 TDP1 no CPT 3.66µM* and DT40 TDP1 CPT 2.59µM*.
Cn1c2c(c(=O)n(C)c1=O)C(C(F)(F)F)(C(F)(F)F)N=C(c1ccccc1Cl)N2 was read as miR-21 FLuc -6.5%, uPA surface inh -0.5%, TDP1 block -2.0%, DT40 TDP1 no CPT inconclusive and DT40 TDP1 CPT 23.1µM*.
For Cn1c(=O)c2c(nc(CCC3CCCC3)n2C)n(C)c1=O the results were uPA surface inh -1.7%, DT40 TDP1 no CPT inconclusive and DT40 TDP1 CPT inconclusive.
Screening O=C(CCNS(=O)(=O)c1ccccc1Cl)N1CCN(c2ccccn2)CC1 returned uPA surface inh -0.9%, TDP1 block 1.5%, DT40 TDP1 no CPT -22.4% and DT40 TDP1 CPT -5.0%.
Screening N#C/C(=C\C=C\c1ccccc1[N+](=O)[O-])C(=O)NC1CCCCC1 returned miR-21 FLuc inconclusive, uPA surface inh -7.4%, TDP1 block 8.9%, DT40 TDP1 no CPT 9.2µM* and DT40 TDP1 CPT 9.2µM*.
